Key:
[1] = biological target: recombinant human PI3Kδ (Homo sapiens (Human), UniProt O00329); test: Inhibitory activity on PI3K kinase (ADP-Glo Kinase Assay)
[2] = biological target: recombinant human PI3Kα (Homo sapiens (Human), UniProt P42336); test: as above

Amino acid sequences for entries named in this document (tags omitted). A change or cut given only in a name is not applied to a line headed by its entry.
UniProt O00329: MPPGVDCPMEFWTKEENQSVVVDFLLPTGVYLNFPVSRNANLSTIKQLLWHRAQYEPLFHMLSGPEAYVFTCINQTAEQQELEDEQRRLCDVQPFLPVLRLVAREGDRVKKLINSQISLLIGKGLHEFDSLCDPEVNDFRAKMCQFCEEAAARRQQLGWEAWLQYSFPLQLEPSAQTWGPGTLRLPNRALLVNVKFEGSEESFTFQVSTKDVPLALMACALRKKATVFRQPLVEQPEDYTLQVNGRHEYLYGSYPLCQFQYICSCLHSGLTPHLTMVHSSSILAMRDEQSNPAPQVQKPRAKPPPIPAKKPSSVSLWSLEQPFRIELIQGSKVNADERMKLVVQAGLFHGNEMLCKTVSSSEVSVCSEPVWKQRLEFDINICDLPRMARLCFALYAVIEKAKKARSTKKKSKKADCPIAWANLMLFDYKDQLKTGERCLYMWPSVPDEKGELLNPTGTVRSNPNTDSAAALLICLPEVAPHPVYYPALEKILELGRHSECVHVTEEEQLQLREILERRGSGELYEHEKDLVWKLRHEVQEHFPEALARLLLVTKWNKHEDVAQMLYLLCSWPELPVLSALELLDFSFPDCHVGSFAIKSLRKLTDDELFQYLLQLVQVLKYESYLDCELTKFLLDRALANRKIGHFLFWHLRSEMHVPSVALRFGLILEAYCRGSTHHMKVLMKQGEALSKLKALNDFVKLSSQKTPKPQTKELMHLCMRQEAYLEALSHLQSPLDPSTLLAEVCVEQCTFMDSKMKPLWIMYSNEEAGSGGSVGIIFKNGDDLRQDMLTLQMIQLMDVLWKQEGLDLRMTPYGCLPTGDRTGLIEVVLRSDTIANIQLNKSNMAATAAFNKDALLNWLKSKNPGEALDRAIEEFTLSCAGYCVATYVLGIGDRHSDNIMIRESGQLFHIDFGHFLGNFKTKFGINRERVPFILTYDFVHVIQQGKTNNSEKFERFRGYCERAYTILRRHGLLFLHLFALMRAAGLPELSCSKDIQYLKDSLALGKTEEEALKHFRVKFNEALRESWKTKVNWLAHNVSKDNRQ
UniProt P42336, whole entry: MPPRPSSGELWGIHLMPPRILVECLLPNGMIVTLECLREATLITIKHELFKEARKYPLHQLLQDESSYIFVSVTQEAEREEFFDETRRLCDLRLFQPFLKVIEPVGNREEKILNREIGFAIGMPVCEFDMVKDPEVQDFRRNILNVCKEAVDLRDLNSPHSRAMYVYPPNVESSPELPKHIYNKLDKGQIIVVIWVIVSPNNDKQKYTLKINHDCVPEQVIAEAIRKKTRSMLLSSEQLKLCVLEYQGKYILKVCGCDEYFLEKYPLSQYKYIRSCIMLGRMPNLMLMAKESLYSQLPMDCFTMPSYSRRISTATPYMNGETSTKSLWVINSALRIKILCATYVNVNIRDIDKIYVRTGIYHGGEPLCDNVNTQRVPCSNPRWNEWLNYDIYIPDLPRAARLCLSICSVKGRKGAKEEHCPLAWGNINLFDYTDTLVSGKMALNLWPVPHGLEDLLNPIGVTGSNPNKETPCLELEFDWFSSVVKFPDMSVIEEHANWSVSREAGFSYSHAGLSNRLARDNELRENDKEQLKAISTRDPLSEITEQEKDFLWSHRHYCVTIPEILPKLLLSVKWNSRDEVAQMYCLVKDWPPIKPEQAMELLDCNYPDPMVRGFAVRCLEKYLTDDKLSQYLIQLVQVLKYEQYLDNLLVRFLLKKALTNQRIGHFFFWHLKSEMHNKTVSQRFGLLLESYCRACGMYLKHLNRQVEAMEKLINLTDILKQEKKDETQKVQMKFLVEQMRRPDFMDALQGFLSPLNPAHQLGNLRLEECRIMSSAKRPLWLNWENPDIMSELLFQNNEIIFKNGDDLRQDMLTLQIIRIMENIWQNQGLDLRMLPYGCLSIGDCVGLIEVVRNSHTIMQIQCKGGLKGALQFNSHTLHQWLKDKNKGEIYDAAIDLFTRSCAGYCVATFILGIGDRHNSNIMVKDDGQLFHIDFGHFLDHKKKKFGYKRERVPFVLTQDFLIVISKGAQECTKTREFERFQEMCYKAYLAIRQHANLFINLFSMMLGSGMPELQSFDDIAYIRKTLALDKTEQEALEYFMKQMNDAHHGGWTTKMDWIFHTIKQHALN

- IC50 [1]: 170 nM
- IC50 [2]: 99.1 nM
SMILES: C[C@H](NC(=O)c1c(N)nn2cccnc12)c1cc2cccc(C#Cc3cnn(C)c3)c2c(=O)n1-c1ccccc1 [IPI-549, reference compound]

Source: patent US12447151B2, “Alkyne derivative, preparation method for same, and uses thereof” (ZHEJIANG HISUN PHARMACEUTICAL CO., LTD., priority 2019, dated 2025)
